Test results as given in patent US5856189A, “Cell culture model for drug bioavailability” (priority 1997, dated 1999).
Like-named read-outs stand apart in the source and are kept apart here.

Sequences of proteins named here, by UniProt entry; tags and fusion partners are left off. Residues count along the entry.
UniProt P08684, 2-503: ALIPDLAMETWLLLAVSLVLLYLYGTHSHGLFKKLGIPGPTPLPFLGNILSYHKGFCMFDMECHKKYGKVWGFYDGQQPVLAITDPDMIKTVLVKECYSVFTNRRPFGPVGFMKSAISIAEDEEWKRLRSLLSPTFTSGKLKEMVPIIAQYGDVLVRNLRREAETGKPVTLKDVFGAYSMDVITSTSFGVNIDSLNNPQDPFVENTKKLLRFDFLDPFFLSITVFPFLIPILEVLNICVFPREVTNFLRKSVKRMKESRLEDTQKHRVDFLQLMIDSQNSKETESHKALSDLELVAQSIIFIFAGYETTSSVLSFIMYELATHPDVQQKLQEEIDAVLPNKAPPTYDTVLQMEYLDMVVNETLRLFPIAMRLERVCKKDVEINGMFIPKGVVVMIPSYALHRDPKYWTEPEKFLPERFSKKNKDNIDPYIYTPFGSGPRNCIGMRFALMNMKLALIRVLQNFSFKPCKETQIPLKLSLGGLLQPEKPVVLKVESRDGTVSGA

Columns and labels:
[1] = system: human jejunal microsomes (CYP3A); assay: Intrinsic 1'-OH-MDZ formation clearance, human jejunal mucosa/microsomes; type: in vitro ADME; settings: n = 8
Method: (§1) For comparison, an intrinsic 1'-OH-MDZ formation clearance was determined for eight paired human duodenal and jejunal mucosae. The mucosal mass was removed from ~1 foot sections of duodenum and jejunum and total homogenate and microsomes were prepared, as described above. Two of eight preparations contained relatively low amounts of CYP3A5 in addition to CYP3A4, which were resolved from one another by SDS-PAGE. Microsomes were incubated with varying concentrations of MDZ for determination of Km and Vmax parameters for 1'-hydroxylation. Protein concentrations for homogenate and microsomes were measured by the Lowry et al. method [J. Biol. Chem. 193:265-275 (1951)]. The specific CYP3A4 content (pmol/mg protein) in homogenate and microsomes was measured by immunoblot analysis [E. D. Kharasch and K. E. Thummel, Anesth. Analg. 76:1033-1039 (1993)].
(§2) The total amount of microsomal protein per gram of mucosa was determined from the following relationship: [formula] This calculation assumes that CYP3A4 found in mucosal homogenate resides exclusively within the microsomal fraction. The microsomal intrinsic formation clearance was calculated as the ratio of Vmax to Km. The intrinsic 1'-OH-MDZ formation clearance per gram of mucosa was calculated as the product of the microsomal intrinsic formation clearance and the computed amount of microsomal protein per gram of mucosa.

CYP3A (Caco-2 cells) [2] = settings: Matrigel
CYP3A (Caco-2 cells) [3] = target: CYP3A (Caco-2 cells) (Homo sapiens, UniProt P08684)
CYP3A7 = settings: J. C. Gorski et al.; cited from earlier work
[4] = system: human duodenal microsomes (CYP3A); assay: Intrinsic 1'-OH-MDZ formation clearance, human duodenal mucosa/microsomes; type: in vitro ADME; settings: n = 8
Method: as §1, §2

[5] = system: human jejunal microsomes (CYP3A4, CYP3A5)
[6] = clone 5, untreated, 7.5 h incubation
[7] = clone 5, 336 h 1α,25-(OH)2-D3, Matrigel, 7.5 h incubation
[8] = clone 7, 336 h 1α,25-(OH)2-D3, Matrigel, 7 h incubation
[9] = clone 7, 336 h 1α,25-(OH)2-D3, laminin, 7 h incubation

Compound: Cc1ncc2n1-c1ccc(Cl)cc1C(c1ccccc1F)=NC2 [midazolam]
- interindividual variation of intrinsic clearance, jejunum [1]: 20 fold
- 1'-OH-MDZ/4-OH-MDZ ratio, apical (CYP3A (Caco-2 cells) [2]; [6]): 4.5
- 1'-OH-MDZ/4-OH-MDZ ratio, basolateral (CYP3A (Caco-2 cells) [2]; [6]): 3.6
- 1'-OH-MDZ/4-OH-MDZ ratio, apical (CYP3A (Caco-2 cells) [2]; clone 7, 12 h 1α,25-(OH)2-D3, 6 h incubation): 3.8
- 1'-OH-MDZ/4-OH-MDZ ratio, apical (CYP3A (Caco-2 cells) [3]; [7]): 5.4
- 1'-OH-MDZ/4-OH-MDZ ratio, basolateral (CYP3A (Caco-2 cells) [3]; [7]): 5.2
- product formation ratio (CYP3A (Caco-2 cells) [3]; clone 7, 1α,25-(OH)2 -D3 treated, laminin or Matrigel): greater than 5
- 1'-OH-MDZ/4-OH-MDZ ratio, apical (CYP3A (Caco-2 cells) [3]; clone 7, 120 h 1α,25-(OH)2-D3, Matrigel, 6 h incubation): 5.1
- 1'-OH-MDZ/4-OH-MDZ ratio, apical (CYP3A (Caco-2 cells) [3]; clone 7, 336 h 1α,25-(OH)2-D3, Matrigel, 6 h incubation): 5.3
- 1'-OH-MDZ/4-OH-MDZ ratio, apical (CYP3A (Caco-2 cells) [3]; [8]): 5.3
- 1'-OH-MDZ/4-OH-MDZ ratio, basolateral (CYP3A (Caco-2 cells) [3]; [8]): 5.2
- 1'-OH-MDZ/4-OH-MDZ ratio, apical (CYP3A (Caco-2 cells) [3]; [9]): 5.4
- 1'-OH-MDZ/4-OH-MDZ ratio, basolateral (CYP3A (Caco-2 cells) [3]; [9]): 5.2
- 1'-OH-MDZ/4-OH-MDZ product ratio with CYP3A7 (CYP3A7): less than unity
- interindividual variation of intrinsic clearance, duodenum [4]: 15 fold
- 1'-OH-MDZ/4-OH-MDZ ratio ([5]; HI-19 (CYP3A4), 0.25 μM MDZ): 7.4
- 1'-OH-MDZ/4-OH-MDZ ratio ([5]; HI-19 (CYP3A4), 1.00 μM MDZ): 8.1
- 1'-OH-MDZ/4-OH-MDZ ratio ([5]; HI-19 (CYP3A4), 4.00 μM MDZ): 6.8
- 1'-OH-MDZ/4-OH-MDZ ratio ([5]; HI-19 (CYP3A4), 8.00 μM MDZ): 5.6
- 1'-OH-MDZ/4-OH-MDZ ratio ([5]; HI-20 (CYP3A4), 0.25 μM MDZ): 9.0
- 1'-OH-MDZ/4-OH-MDZ ratio ([5]; HI-20 (CYP3A4), 1.00 μM MDZ): 8.9
- 1'-OH-MDZ/4-OH-MDZ ratio ([5]; HI-20 (CYP3A4), 4.00 μM MDZ): 7.1
- 1'-OH-MDZ/4-OH-MDZ ratio ([5]; HI-20 (CYP3A4), 8.00 μM MDZ): 5.8
- 1'-OH-MDZ/4-OH-MDZ ratio ([5]; HI-28 (CYP3A4), 0.25 μM MDZ): 8.5
- 1'-OH-MDZ/4-OH-MDZ ratio ([5]; HI-28 (CYP3A4), 1.00 μM MDZ): 8.6
- 1'-OH-MDZ/4-OH-MDZ ratio ([5]; HI-28 (CYP3A4), 4.00 μM MDZ): 7.0
- 1'-OH-MDZ/4-OH-MDZ ratio ([5]; HI-28 (CYP3A4), 8.00 μM MDZ): 5.7
- 1'-OH-MDZ/4-OH-MDZ ratio ([5]; HI-30 (CYP3A4 & 3A5), 0.25 μM MDZ): 15.4
- 1'-OH-MDZ/4-OH-MDZ ratio ([5]; HI-30 (CYP3A4 & 3A5), 1.00 μM MDZ): 12.1
- 1'-OH-MDZ/4-OH-MDZ ratio ([5]; HI-30 (CYP3A4 & 3A5), 4.00 μM MDZ): 12.2
- 1'-OH-MDZ/4-OH-MDZ ratio ([5]; HI-30 (CYP3A4 & 3A5), 8.00 μM MDZ): 9.7
- 1'-OH-MDZ/4-OH-MDZ ratio ([5]; HI-31 (CYP3A4 & 3A5), 0.25 μM MDZ): 11.2
- 1'-OH-MDZ/4-OH-MDZ ratio ([5]; HI-31 (CYP3A4 & 3A5), 1.00 μM MDZ): 10.6
- 1'-OH-MDZ/4-OH-MDZ ratio ([5]; HI-31 (CYP3A4 & 3A5), 4.00 μM MDZ): 8.7
- 1'-OH-MDZ/4-OH-MDZ ratio ([5]; HI-31 (CYP3A4 & 3A5), 8.00 μM MDZ): 7.0
- 1'-OH-MDZ/4-OH-MDZ ratio ([5]; HI-35 (CYP3A4 & 3A5), 0.25 μM MDZ): 11.1
- 1'-OH-MDZ/4-OH-MDZ ratio ([5]; HI-35 (CYP3A4 & 3A5), 1.00 μM MDZ): 10.3
- 1'-OH-MDZ/4-OH-MDZ ratio ([5]; HI-35 (CYP3A4 & 3A5), 4.00 μM MDZ): 8.3
- 1'-OH-MDZ/4-OH-MDZ ratio ([5]; HI-35 (CYP3A4 & 3A5), 8.00 μM MDZ): 6.7
